Sequences of proteins named here, by UniProt entry; tags and fusion partners are left off.
UniProt P23458, whole entry: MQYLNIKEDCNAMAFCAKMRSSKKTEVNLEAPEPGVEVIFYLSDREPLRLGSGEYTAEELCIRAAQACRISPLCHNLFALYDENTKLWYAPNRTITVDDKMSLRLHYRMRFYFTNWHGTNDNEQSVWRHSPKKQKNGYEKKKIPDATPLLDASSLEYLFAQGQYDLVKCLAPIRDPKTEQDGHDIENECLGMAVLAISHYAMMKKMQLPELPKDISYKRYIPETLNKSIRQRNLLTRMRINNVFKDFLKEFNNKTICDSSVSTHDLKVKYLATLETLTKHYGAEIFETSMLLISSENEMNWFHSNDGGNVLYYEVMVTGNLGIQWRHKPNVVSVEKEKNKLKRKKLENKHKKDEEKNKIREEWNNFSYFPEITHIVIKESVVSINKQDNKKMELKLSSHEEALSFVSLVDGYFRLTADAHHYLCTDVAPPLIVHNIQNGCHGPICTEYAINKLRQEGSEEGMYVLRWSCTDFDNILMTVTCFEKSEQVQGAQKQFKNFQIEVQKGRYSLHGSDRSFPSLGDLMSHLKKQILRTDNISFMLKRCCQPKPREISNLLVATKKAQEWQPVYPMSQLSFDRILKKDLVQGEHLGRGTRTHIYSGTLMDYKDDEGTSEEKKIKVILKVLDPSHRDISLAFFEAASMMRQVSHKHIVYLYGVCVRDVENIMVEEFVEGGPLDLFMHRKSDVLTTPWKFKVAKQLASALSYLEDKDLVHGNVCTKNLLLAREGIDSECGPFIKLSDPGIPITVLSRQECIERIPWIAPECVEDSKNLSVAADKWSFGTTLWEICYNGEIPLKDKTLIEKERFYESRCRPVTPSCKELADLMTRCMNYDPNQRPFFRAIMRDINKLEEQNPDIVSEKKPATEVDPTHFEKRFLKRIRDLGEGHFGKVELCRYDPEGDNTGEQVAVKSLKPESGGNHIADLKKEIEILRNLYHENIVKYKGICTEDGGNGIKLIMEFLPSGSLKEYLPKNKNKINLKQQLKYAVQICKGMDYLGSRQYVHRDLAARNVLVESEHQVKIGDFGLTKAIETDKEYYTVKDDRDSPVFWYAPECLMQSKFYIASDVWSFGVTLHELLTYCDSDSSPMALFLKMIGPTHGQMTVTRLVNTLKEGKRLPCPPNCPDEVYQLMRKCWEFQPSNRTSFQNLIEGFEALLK
UniProt P50750, whole entry: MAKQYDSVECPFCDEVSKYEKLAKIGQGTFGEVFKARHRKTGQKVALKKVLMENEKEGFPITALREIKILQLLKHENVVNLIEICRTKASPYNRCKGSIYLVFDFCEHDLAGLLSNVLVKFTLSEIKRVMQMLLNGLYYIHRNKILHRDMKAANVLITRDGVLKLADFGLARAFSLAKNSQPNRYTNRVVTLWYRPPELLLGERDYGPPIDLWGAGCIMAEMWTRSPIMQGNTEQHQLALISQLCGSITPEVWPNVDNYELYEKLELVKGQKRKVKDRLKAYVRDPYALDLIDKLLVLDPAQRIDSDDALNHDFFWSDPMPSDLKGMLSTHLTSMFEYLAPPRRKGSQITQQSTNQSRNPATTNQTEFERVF
UniProt O60674, whole entry: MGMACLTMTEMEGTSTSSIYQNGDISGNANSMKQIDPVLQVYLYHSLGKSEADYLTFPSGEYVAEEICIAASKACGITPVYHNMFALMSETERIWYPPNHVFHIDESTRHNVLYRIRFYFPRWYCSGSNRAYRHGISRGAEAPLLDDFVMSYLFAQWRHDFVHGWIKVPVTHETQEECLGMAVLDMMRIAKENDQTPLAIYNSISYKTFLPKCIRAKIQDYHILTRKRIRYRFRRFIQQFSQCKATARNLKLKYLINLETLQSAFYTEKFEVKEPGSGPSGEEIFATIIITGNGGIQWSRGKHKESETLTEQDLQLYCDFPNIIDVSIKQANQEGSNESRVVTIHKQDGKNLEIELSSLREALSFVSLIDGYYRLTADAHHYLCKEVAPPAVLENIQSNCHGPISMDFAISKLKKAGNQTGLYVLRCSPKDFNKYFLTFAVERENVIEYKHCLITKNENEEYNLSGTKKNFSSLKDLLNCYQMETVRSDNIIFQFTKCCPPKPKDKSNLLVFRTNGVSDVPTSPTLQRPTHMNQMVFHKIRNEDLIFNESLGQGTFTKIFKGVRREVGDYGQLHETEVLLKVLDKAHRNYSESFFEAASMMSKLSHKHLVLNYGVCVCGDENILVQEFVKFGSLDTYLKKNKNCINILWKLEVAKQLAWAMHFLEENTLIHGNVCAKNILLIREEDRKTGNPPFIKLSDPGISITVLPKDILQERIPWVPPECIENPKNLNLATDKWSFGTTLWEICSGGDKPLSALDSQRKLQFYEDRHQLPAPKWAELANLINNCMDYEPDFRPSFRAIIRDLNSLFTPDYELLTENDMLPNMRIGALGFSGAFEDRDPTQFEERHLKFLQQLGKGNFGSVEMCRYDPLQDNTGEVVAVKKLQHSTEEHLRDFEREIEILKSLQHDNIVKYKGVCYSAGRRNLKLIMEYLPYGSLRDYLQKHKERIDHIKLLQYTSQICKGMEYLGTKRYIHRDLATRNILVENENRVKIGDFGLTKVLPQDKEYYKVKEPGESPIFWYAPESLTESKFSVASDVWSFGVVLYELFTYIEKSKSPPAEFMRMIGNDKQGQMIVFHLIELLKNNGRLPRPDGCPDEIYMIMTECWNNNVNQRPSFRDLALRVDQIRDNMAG
UniProt O60563, whole entry partner: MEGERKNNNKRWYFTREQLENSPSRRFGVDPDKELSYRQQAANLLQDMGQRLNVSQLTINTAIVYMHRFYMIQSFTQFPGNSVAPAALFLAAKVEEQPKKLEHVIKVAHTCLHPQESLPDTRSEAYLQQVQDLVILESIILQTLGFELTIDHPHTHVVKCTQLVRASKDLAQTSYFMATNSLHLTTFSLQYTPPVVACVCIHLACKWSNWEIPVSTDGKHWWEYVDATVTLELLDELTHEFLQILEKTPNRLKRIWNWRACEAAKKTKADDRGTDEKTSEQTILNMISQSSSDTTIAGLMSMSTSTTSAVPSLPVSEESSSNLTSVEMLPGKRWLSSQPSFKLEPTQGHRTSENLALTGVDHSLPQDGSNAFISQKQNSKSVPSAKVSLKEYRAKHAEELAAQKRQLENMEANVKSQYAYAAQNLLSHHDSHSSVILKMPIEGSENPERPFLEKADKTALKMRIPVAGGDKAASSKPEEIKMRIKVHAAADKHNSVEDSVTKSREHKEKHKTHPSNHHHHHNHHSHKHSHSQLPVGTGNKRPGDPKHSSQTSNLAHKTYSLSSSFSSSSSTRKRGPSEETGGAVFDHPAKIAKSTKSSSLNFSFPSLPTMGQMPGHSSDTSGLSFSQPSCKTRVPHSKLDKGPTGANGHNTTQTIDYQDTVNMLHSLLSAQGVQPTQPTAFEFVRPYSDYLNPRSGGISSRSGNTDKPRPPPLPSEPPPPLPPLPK

In patent US20260384442A1, “MACROCYCLIC COMPOUND AS CDK9 INHIBITOR AND USE THEREOF” (published 2026):

Assays:
[1] = biological target: JAK1 (Homo sapiens, UniProt P23458); assay: Kinase selectivity at 10 nM, JAK1
Protocol: (§1) The inhibitory effect of the compounds on the activity of CDK9 protein kinase was detected by the caliper mobility shift assay method. 250 nL of the compound at 100-fold final concentration was transferred to a target 384-well-plate with a dispenser Echo 550. A kinase solution at 2.5-fold final concentration was prepared using 1× kinase buffer. 10 μL of the kinase solution at 2.5-fold final concentration was added to the compound well and positive control well respectively. 10 μL of 1× kinase buffer was added to the negative control well. The 384-well plate was centrifuged at 1000 rpm for 30 seconds and incubated at room temperature for 10 minutes. A mixed solution of ATP and kinase substrate at 5/3-fold final concentration was prepared with 1× kinase buffer, and to the 384-well plate was added with 15 μL per well of the mixed solution of ATP and substrate at 5/3-fold final concentration to start the reaction. The plate was centrifuged at 1000 rpm for 30 seconds, shaken to mix evenly, and incubated at room temperature for a corresponding time. 30 μL of detection stopping solution was added to terminate the kinase reaction. The 384-well plate was centrifuged at 1000 rpm for 30 seconds and shaken to mix evenly. The conversion rate was read with Caliper EZ Reader. The percent conversion inhibition rate=(% positive control conversion rate mean−% sample conversion rate/(% positive control conversion rate mean−% negative control conversion rate mean). Among them: negative control wells represent the conversion rate readings of kinase buffer background wells; positive control wells represent the conversion rate readings of wells without inhibition by compound. With the log value of concentration as the x-axis and the percentage inhibition rate as the y-axis, a dose-response curve was fitted using the log (inhibitor) vs. response—Variable slope of the analysis software GraphPad Prism 5 to obtain the IC50 value of each compound on enzyme activity. Calculation formula: y=Bottom+(Top− Bottom)/(1+10^((Log IC50−x)×hillslope)), x: logarithm of inhibitor concentration; y: % inhibition rate.
(§2) According to the description of the above experiment on kinase activity inhibition, some compounds were tested for their selective inhibition rate against the kinases of CDK7, CDK9, JAK1, JAK2, JAK3, ITK, RET, TYK2, and LRRK2 at 10 nM.

[2] = biological target: CDK9 (Homo sapiens, UniProt P50750); assay: Inhibition on CDK9 kinase activity, caliper mobility shift assay; conditions: 10 nM; for inhibition rate on CDK9 kinase activity: duplicate wells (Table 1)
Protocol: Compounds were tested at a concentration of 10 nM with detection in duplicate wells, or tested at 10 concentrations starting from 10 μM with three-fold serial dilutions, with detection in duplicate wells.
as §1, §2

[3] = biological target: JAK2 (Homo sapiens, UniProt O60674); assay: Kinase selectivity at 10 nM, JAK2
Protocol: as §1, §2

| inhibition rate JAK1 [1] | inhibition rate on CDK9 kinase activity [2] | inhibition rate CDK9 ([2]; selectivity panel (Table 3)) | inhibition rate JAK2 [3] | Compound |
| --- | --- | --- | --- | --- |
| C (<25%) | A (>50%) | A (>50%) | C (<25%) | Clc1cnc2nc1OCCCCCNCc1cccc(c1)N2 |
| – | B (25-49%) | – | – | Cc1nc2sc1-c1nc(ncc1F)Nc1cccc(c1)NCCOCCN2 |
